In patent US20210024583A1, “COMPOSITIONS AND METHODS FOR PEPTIDE MEDIATED OLIGONUCLEOTIDE DELIVERY TO THE CENTRAL NERVOUS SYSTEM” (The Regents of the University of California, priority 2019, published 2021):

Key:
[1] = system: GFAP; experiment: GFAP immunoreactivity (astrogliosis) in α-syn tg mice after repeat i.p. injections; type: in vivo, mouse; conditions: neocortex and CA3 region of hippocampus
Procedure: To determine if the siαSyn gene transfer ameliorated the neurodegenerative alterations associated with the expression of α-syn, briefly as previously described, blind-coded, 40-μm thick vibratome sections from mouse brains fixed in 4% paraformaldehyde were immunolabeled with the mouse monoclonal antibodies against NeuN (neuronal marker, Millipore) or glial fibrillary acidic protein (GFAP, astroglial marker, Chemicon). After overnight incubation with the primary antibodies, sections were incubated with biotinylated secondary antibody and reacted with diaminobenzidine, transferred to SuperFrost™ slides (Fisher Scientific). All sections were processed under the same standardized conditions. For each mouse, a total of three sections each were analyzed and for each section, three fields each in the frontal cortex, hippocampus and striatum were examined. For NeuN, results were expressed as numbers of positive cells and for GFAP and Synuclein, results were expressed as corrected optical density. Optical density measurements were obtained using the ImageQuant™ software and quantification performed by correcting against background signal levels. All sections were processed simultaneously under the same conditions and experiments were performed twice in order to assess the reproducibility of results. Sections were imaged with a digital scanning microscope (Zeiss). […]

[2] = system: ASyn; experiment: ASyn accumulation in differentiated SH-SY5Y cells infected with LV-ASyn or LV-Ctrl; type: cell-based, human; conditions: 100 pmol, 48 hours, immunohistochemistry, confirmed by immunoblot
Procedure: In order to determine if the ApoB^11:2-OMe ASyn could reduce the accumulation of ASyn in a neuronal cell line as efficiently as the RNA sequence, we differentiated SH-SY5Y human neuroblastoma cells and infected with a lentivirus vector overexpressing human ASyn (LV-ASyn) or a control vector (LV-Ctrl). Cells were treated with the ApoB^11:oligonucleotide for 48 hours and then either fixed/stained for ASyn or cell lysates were collected/analyzed by immunoblot for ASyn protein. […] Thus, the 2′OMe backbone was efficiently transport into cells and reduced the expression of ASyn in neurons.
In order to determine whether ApoB^11:2-OMe siα-syn can reduce accumulation of α-syn in a neuronal cell line as efficiently as the RNA backbone (siRNA α-syn), we infected differentiated SH-SY5Y human neuroblastoma cells with a lentivirus vector overexpressing human α-syn (LV-α-syn) or control vector (LV-Ctrl). Cells were then treated with ApoB^11:si α-syn (alphα-syn) or ApoB^11:si scrambled for 48 hours and then either fixed and immunostained for α-syn or lysed for immunoblot analysis of α-syn protein.
FIG. 9A-D illustrates data showing that the delivery of ApoB^11:2′-OMe siASyn ASO reduces the accumulation of A-Syn in human neuronal cells in vitro. Human neuroblastoma cells, SH-SY5Y, were differentiated and infected with LV-ASyn or LV-Ctrl for 72 hours in differentiation media. […]

Substance: 5′GGG CAU ACU GAG CUA ACA A (GGGCAUACUGAGCUAACAA; siRNA; mixed with ApoB11 or C2-9r carrier peptide, further chemistry not given here) [si-scrambled]
- GFAP immunoreactivity [1]: increased GFAP immunoreactivity
- endogenous levels of ASyn in cells infected with LV-Ctrl [2]: high levels of endogenous α-syn
